Values quoted from earlier work, collected in publication PMC7931646 (The Journal of Experimental Medicine, 2021).

Tested on: Aβ plaques
Settings: prodromal or mild AD patients, phase 1b vs placebo; ref Sevigny et al., 2016; cited from earlier work

In the case of “aducanumab: Biogen's anti-Aβ antibody, passive immunization”, the “Aβ plaques by amyloid PET imaging” value is given as “dose-dependent reduction”.
